Screening results (PubChem)
GIV Gai3 FP: blocks GIV peptide binding to rat Galpha-i3. P08753. Galpha-i3/FITC-GIV peptide fluorescence polarization, 90 min; hits give low values; scaled: aluminum fluoride 0%, vehicle 100%. percent of control (FP), % (concentration not given with the values). actives 0.42% (n = 210,000). AID 1224905;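 active = replicate mean at 85% of control or lower, very high polarization wells dropped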;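 also: wells of about 15 µL received 100 nL stock; the first replicate is given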
HCMV NEC inh: cytomegalovirus nuclear egress complex inhibition; HTRF UL50-UL53 interaction, normalized percent inhibition; inhibition, % (test concentration not listed); 190,000 compounds, 0.15% hits; in the data active means inhibition above about 27%, passing the limit was not always enough
GIV Gai FP conf: GIV-Galpha-i3 inhibition, FP confirmation. shares compounds with GIV Gai3 FP. FITC-GIV peptide binding to Galphai3, fluorescence polarization; stronger effect = lower value. fluorescence polarization, mP at 100 µM. 580 compounds, 38% hits. AID 1259350;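 active means inhibition score of 15 or more, meaning 100 minus mean polarization as percent of control over three replicates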
GIV Gai AS conf: confirmation of inhibitors of GIV binding to human Galpha-i3. shares compounds with GIV Gai3 FP. AlphaScreen Galphai3-GIV binding, purified proteins, 90 min; stronger effect = lower value. AlphaScreen counts at 100 µM. 580 compounds, 39% hits;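 active means inhibition score at or above a set limit, where the score is 100 minus the three-replicate mean percent of control signal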
* = called active by the depositor; · = no result given; ! = not confirmed by another sample. In the library only some 0.46% were active in any assay of this set; here they are far more common.

Value order – HCMV NEC inh | GIV Gai AS conf | GIV Gai FP conf | GIV Gai3 FP
> COc1ccc(OC)c(/C=c2\sc3nc4ccccc4n3c2=O)c1
    -6.7 | 38058 | 52.3* | 88.7
> COc1ccc(/C=c2/sc3nc4ccccc4n3c2=O)cc1
    9.2 | · | · | ·
> O=C(Cn1cc(/C=c2/sc3nc4ccccc4n3c2=O)c2ccccc21)Nc1ccccc1
    · | · | · | 107.6
> COc1ccccc1C1C2=C(CC(C)(C)CC2=O)Nc2nc3ccccc3n21 (stereo not given)
    -8.0 | · | · | 103.9
> CCCOc1ccc(NC(=O)C2CC(=O)N(C)C(=Nc3ccc(C)c(C)c3)S2)cc1 (stereo not given)
    · | · | · | 107.2
> CC(NCc1ccc(F)cc1)C(=O)NC1CCCCC1 (stereo not given)
    -18.1 | · | · | 100.5
> CC(NCc1ccc(F)cc1)C12CC3CC(CC(C3)C1)C2 (stereo not given)
    · | 43107 | 62.5 | 88.4
> CC(C)NC(=O)CSc1nncn1-c1ccccc1
    -28.8 | · | · | ·
> Oc1ccccc1C1=Nc2ccccc2N=C(c2ccc(Cl)cc2)C1
    -0.6 | 44887 | 67.5 | 72.2*!
> Oc1ccc(Cl)cc1C1=Nc2ccccc2N=C(c2ccc(Cl)cc2)C1
    · | · | · | 99.2
> O=c1[nH]c(=O)c2nc3ccc(Cl)cc3nc2[nH]1
    · | · | · | 102.8
> Cc1cc2nc3c(=O)[nH]c(=O)[nH]c3nc2cc1N
    · | 30002* | 46* | 63.7*
> CN(C)c1ccc2nc3c(=O)[nH]c(=O)[nH]c3nc2c1
    · | 14401* | 33* | 77.0*
> Cc1cc2nc3[nH]c(=O)[nH]c(=O)c3nc2cc1C
    -111.8 | · | · | ·
> N#Cc1nc(-c2cccc(O)c2)oc1N
    -18.0 | · | · | ·
> NC(=O)Cn1nc2c3c(cccc3c1=O)-c1ccccc1-2
    -48.2 | · | · | 106.7
> O=C1NC(=O)N(c2ccccc2)C(=O)/C1=C/c1cc(Br)c(N2CCOCC2)o1
    -23.4 | · | · | 119.6
> CC(=O)N1CN(C(C)=O)C(O)C1O (stereo not given)
    4.3 | · | · | 102.7
> CC(=O)N1CC(C)=C(C#N)C1O (stereo not given)
    2.1 | 19185* | 47.8* | 72.8*
> COC(=O)c1nn(-c2ccc(OC)cc2)c(=O)c2c(N)sc(C)c12
    -112.9 | · | · | 105.6
> CCOC(=O)C1=C(CSc2nnnn2-c2ccccc2OCC)NC(=O)NC1c1ccccc1 (stereo not given)
    -21.7 | · | · | ·
> CC(=O)Nc1cnn(-c2ccccc2)c(=O)c1Cl
    -57.4 | · | · | 103.8
> O=C(O)c1ccc(-n2ncc(Cl)c(Cl)c2=O)cc1
    -19.1 | 39055 | 62.4 | 77.9*!
> CC(O)(CC#N)c1ccccc1 (stereo not given)
    6.3 | · | · | 109.1
> Cc1ccc(C)n1-c1ccc(CC(=O)O)cc1
    -22.9 | 2612* | 33.2* | 35.9*
> Cc1ccc(C)n1-c1ccc(C(=O)O)c(C(=O)O)c1
    11.1 | 3015* | 48.6* | 60.1*
> Cc1ccc(C)n1-c1sccc1C(=O)O
    27.9 | 3223* | 54.7 | 26.6*
> Cc1ccc(C)n1-c1sccc1C(=O)CC#N
    -12.2 | · | · | 106.1
> Cc1ccc(C)n1-c1cccc(C(=O)O)c1
    20.6 | · | · | ·
> CCc1ccc(-n2c(C)ccc2C)cc1
    -33.7 | · | · | ·

Rewritten with each value named: entries from further up.
O=C1NC(=O)N(c2ccccc2)C(=O)/C1=C/c1cc(Br)c(N2CCOCC2)o1
  HCMV NEC inh = -23.4
  GIV Gai AS conf = ·
  GIV Gai FP conf = ·
  GIV Gai3 FP = 119.6
COc1ccc(/C=c2/sc3nc4ccccc4n3c2=O)cc1
  HCMV NEC inh = 9.2
  GIV Gai AS conf = ·
  GIV Gai FP conf = ·
  GIV Gai3 FP = ·
NC(=O)Cn1nc2c3c(cccc3c1=O)-c1ccccc1-2
  HCMV NEC inh = -48.2
  GIV Gai AS conf = ·
  GIV Gai FP conf = ·
  GIV Gai3 FP = 106.7
N#Cc1nc(-c2cccc(O)c2)oc1N
  HCMV NEC inh = -18.0
  GIV Gai AS conf = ·
  GIV Gai FP conf = ·
  GIV Gai3 FP = ·

Additional compounds follow:
Value order – HCMV NEC inh | GIV Gai AS conf | GIV Gai FP conf | GIV Gai3 FP
> Nc1ncnc2c1ncn2C1OC(C(=O)O)C(O)C1O (stereo not given)
    -18.5 | · | · | 108.5
> O=C(c1ccc(F)cc1)c1c[nH]c(C(=O)NCc2ccco2)c1
    7.9 | · | · | 100.1
> O=C1CSC(CC(=O)Nc2ccccc2)=N1
    -25.8 | · | · | 101.0
> Cn1nc(-c2nc(-c3ccccc3)no2)c2c1CCN(S(=O)(=O)c1cnc[nH]1)C2
    · | · | · | 102.3
> COc1ccc2c(c1)N(C)/C(=c1/s/c(=C3/C(=O)N(c4ccccc4)N=C3C)n(C)c1=O)S2
    -33.6 | 34539 | 74.5 | 73.0*
> COc1ccc2c(c1)N(C)/C(=c1/s/c(=C3/C(=O)N(C)C(=S)N3C)n(Cc3ccccc3)c1=O)S2
    · | · | · | 110.6
> Cc1ccc2nc(-c3ccco3)c(Nc3ccc4c(c3)OCCO4)n2c1
    -6.5 | · | · | 101.7
> COc1ccccc1C1C=C(c2cccnc2)Nc2nc3ccccc3n21 (stereo not given)
    -51.6 | 30087 | 48.4* | 69.4*
> COc1cccc(C2=CC(c3ccccc3F)n3c(nc4ccccc43)N2)c1 (stereo not given)
    · | · | · | 100.9
> O=C(Nc1ccc2oc(-c3ccc(F)cc3Cl)nc2c1)c1cc([N+](=O)[O-])cc([N+](=O)[O-])c1
    -22.0 | · | · | 99.6
> CC(=O)N/N=C/c1cc(C(C)C)cc(/C=N/NC(C)=O)c1O
    -84.6 | 27039 | 67.6 | 80.6*
> CC(=O)N/N=C/c1ccccc1
    -13.7 | · | · | 100.7
> CSc1sc(-c2ccon2)c(-c2ccco2)c1C#N
    -45.0 | · | · | 103.4
> COc1ccc(C(=O)Oc2cccc(-n3cnnn3)c2)cc1
    -18.5 | · | · | 101.0
